The values that follow come from patent US5766848A (Synaptic Pharmaceutical Corporation, priority 1994, dated 1998).

Amino acid sequences for entries named in this document (tags omitted). A change or cut given only in a name is not applied to a line headed by its entry.
UniProt P48065: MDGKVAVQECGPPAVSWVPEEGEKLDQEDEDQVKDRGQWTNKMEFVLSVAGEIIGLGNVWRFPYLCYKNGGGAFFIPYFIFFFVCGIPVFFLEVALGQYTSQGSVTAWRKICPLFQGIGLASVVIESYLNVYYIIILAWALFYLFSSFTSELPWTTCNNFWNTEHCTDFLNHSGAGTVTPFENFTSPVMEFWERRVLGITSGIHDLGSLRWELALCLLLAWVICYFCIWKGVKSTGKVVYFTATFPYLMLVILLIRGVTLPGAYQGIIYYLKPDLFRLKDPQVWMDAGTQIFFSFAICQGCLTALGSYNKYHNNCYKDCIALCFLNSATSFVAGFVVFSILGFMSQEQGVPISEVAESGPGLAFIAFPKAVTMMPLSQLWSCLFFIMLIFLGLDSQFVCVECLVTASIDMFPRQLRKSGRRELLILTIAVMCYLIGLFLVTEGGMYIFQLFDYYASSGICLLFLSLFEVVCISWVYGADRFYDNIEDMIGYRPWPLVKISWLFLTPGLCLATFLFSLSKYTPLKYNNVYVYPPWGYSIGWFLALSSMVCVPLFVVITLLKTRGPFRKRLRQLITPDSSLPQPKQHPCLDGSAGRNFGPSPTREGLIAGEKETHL

In one test the target is T1, rat GAT-2 (Rattus norvegicus, UniProt P31646).
T1 sequence (P31646 1-602): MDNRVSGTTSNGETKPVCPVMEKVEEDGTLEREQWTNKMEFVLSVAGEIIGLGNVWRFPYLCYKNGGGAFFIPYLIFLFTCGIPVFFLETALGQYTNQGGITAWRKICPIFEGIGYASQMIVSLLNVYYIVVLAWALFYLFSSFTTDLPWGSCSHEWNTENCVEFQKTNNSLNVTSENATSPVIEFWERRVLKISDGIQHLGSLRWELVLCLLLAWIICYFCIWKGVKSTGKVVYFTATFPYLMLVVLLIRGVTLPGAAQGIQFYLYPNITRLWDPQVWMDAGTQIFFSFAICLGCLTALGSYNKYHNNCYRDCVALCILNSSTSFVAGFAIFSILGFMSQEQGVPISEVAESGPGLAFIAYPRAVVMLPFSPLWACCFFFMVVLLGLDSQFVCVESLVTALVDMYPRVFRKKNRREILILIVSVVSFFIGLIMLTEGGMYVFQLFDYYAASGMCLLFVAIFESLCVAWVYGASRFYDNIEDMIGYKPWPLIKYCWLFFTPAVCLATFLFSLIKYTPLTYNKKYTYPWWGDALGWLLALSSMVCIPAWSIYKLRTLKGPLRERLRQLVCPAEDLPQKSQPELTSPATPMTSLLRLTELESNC

The target in a further test is T2, human BGT-1 (Homo sapiens, UniProt P48065).
T2 sequence (P48065 1-614 C10Y): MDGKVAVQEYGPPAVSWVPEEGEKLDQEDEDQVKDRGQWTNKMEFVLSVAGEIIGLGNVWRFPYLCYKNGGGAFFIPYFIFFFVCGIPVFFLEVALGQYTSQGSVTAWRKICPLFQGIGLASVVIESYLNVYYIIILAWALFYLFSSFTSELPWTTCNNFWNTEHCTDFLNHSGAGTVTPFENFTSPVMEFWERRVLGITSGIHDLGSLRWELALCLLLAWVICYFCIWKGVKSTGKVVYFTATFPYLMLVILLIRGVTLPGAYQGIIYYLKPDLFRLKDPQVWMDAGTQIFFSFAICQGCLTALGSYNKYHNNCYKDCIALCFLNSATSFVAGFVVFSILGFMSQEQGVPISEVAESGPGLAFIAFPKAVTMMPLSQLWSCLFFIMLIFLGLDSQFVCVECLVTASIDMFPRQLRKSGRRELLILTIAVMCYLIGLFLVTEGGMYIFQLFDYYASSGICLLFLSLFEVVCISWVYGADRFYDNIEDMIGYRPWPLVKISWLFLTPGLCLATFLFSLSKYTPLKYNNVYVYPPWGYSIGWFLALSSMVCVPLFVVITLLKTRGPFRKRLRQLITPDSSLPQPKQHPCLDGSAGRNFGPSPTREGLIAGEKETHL
The conditions noted are these: read-out: IC50, human BGT-1, inhibition of [3H]GABA uptake.

In general, IC50 refers to the concentration that gives 50% inhibition. As to `O=C(O)C1CCCN(CCC=C(c2ccccc2)c2ccccc2)C1` (stereo not shown) [SK&F 89976-A, N-(4,4-diphenyl-3-butenyl)-3-piperidinecarboxylic acid], the IC50 against rat GAT-2 is 550 ± 225 µM.

At rat GAT-2, `O=C(O)[C@@H]1CCCNC1` [(R)-nipecotic acid] registered an IC50 of 19 ± 2 µM.

For the compound `O=C(O)[C@H]1CCCNC1` [(S)-nipecotic acid], the IC50 against rat GAT-2 worked out at 763 ± 55 µM; on human BGT-1, 6.41 ± 0.213 mM.
